Where “and” joins values, the source holds several entries; their conditions need not be identical. Equal entries are not always repeated. The entries are a selection whose mix differs from that of the whole data set. Inconclusive results are not listed. For part of these data: Measured potencies and affinities stand elsewhere. Calls of active or inactive are those of the source. Unless noted, calls come from the whole dose curve; as a rule, active = well fitted curve in the direction sought with a large enough effect; inconclusive = small, poorly fitted or top-dose-only effect, or another doubt; inactive = no such curve, though single readings can be large; an effect the other way counts as inactive or inconclusive.

Protein sequences, listed by entry. Tags and fused reporters are not part of them.
UniProt P01375, whole entry: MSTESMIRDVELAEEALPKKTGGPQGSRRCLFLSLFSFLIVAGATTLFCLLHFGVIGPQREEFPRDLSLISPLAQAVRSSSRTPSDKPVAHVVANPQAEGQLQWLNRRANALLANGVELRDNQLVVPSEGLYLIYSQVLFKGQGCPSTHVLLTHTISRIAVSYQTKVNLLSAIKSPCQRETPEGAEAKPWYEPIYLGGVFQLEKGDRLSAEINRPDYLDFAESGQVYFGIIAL
UniProt Q07869, whole entry: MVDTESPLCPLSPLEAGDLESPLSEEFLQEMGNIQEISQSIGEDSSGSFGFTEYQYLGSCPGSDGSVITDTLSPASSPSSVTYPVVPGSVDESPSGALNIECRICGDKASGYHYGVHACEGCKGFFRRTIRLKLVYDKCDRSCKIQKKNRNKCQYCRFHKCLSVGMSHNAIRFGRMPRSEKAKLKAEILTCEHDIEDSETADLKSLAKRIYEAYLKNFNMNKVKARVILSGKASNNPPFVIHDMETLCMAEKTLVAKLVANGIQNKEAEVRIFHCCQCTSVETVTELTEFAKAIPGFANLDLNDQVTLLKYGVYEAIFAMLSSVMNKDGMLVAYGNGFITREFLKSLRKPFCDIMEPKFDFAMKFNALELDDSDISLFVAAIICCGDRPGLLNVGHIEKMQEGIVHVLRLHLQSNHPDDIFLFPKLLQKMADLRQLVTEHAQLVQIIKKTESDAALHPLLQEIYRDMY

Results on 2 compounds are retold here after PubChem BioAssay (NCATS).

Assay [1] can be described thus: qHTS assay for small molecule agonists of the antioxidant response element (ARE) signaling pathway (AID 651741; active = well fitted activation curve with a large enough effect in the signal ratio; the % refers to the signal ratio; note: % of control where 0% means no effect). To be noted: HepG2 ARE-bla reporter, beta-lactamase FRET ratio, 16 h; at 96 µM (top of the series). The source says:
(§1) National Center for Advancing Translational Sciences [NCATS]
(§2) NIH Chemical Genomics Center [NCGC]
(§3) U.S. Environmental Protection Agency [EPA]
(§4) National Institutes of Environmental Health Sciences [NIEHS]
(§5) National Toxicology Program [NTP]
Oxidative stress has been implicated in the pathogenesis of a variety of diseases ranging from cancer to neurodegeneration. The antioxidant response element (ARE) signaling pathway plays an important role in the amelioration of oxidative stress. The CellSensor ARE-bla HepG2 cell line (Invitrogen) can be used for analyzing the Nrf2/antioxidant response signaling pathway. Nrf2 (NF-E2-related factor 2) and Nrf1 are transcription factors that bind to AREs and activate these genes. The CellSensor ARE-bla Hep G2 cell line contains a beta-lactamase reporter gene under control of the Antioxidant Response Element (ARE) stably integrated into HepG2 cells. The activation of the report gene under culture conditions can be detected by fluorescence intensity. […]
The ARE-bla cells were dispensed at 2,000 cells/5 ul/well in 1536-well black wall/clear bottom plates using a Multidrop dispenser. […] After 1 uL of LiveBLAzer B/G FRET substrate was added using a Flying Reagent Dispenser, the plates were incubated at room temperature for 2 hours, and fluorescence intensity was measured by an Envision plate reader.

A short description of assay [2]: qHTS assay for small molecule activators of the p53 signaling pathway (AID 651743; active = well fitted activation curve with a large enough effect in the signal ratio, not every such curve was filed as active; the % refers to the signal ratio; note: % of control where 0% means no effect). The note with it: HCT-116 p53RE-bla, beta-lactamase FRET ratio, 16 h; stronger effect = higher value. Summed up: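 Reporter: beta-lactamase driven by p53 response elements, stably integrated in HCT-116 cells. Cells seeded at 4,000/well, 5 h preincubation, compound (DMSO) 16 h at 37 C; B/G FRET substrate 2 h RT; fluorescence intensity read.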

Assay [3] is described as follows: qHTS assay for small molecule activators of the nuclear factor-kappa B (NF-kB) signaling pathway (AID 651749; active = well fitted activation curve with a large enough effect in the signal ratio; the % refers to the signal ratio; note: % of control where 0% means no effect). The note with it: NF-kB-bla ME-180 cells, beta-lactamase FRET ratio, 16 h; stronger effect = higher value. From the text:
National Center for Advancing Translational Sciences [NCATS] NIH Chemical Genomics Center [NCGC] U.S. Environmental Protection Agency [EPA] National Institutes of Environmental Health Sciences [NIEHS] National Toxicology Program [NTP] Assay Overview: Transcription factors and their stimulated target gene expression play pivotal roles across many cellular processes including responses to environmental stimuli. Proper regulation of associated pathways is critical to maintain cell health and function. Constitutive activation of transcription factor pathways has been implicated in tumors as it may block cellular functions such as apoptosis and lead to invasion and metastasis. One important transcription factor that stimulates gene expression in response to cytokines, UV radiation, and other stimuli is nuclear factor-kappa B (NF-kB). To measure activation of the NF-kB pathway, the NF-kB-bla ME-180 cell line stably expressed beta-lactamase reporter gene under the regulation of a NF-kB response element was obtained from Invitrogen. This assay allows measurement of the NF-kB pathway activity induced by compounds in a ME-180 cell line. This system quantitates NF-kB activity using a FRET-based assay system where beta-lactamase expression disrupts FRET, allowing for fluorescent measurement of activity. […]

Assay [4] in a line: qHTS assay for small molecule disruptors of the mitochondrial membrane potential - 1 hr assay (AID 651754; calls by dose curve; note: % is set by controls: 0 for no effect and ±100 for the full control effect; nearly all actives have a fitted effect of over 35% in size). To be noted: HepG2 mitochondrial membrane potential, JC-1 ratio 590/535, 1 h; at 92.2 µM (top of the series). In a few lines: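 In this qHTS format, a 1 hr compound treatment of HepG2 cells precedes Mito-MPS staining, and membrane potential is judged from aggregate (red) against monomer (green) fluorescence intensity.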

A short description of assay [5]: qHTS assay for small molecule disruptors of the mitochondrial membrane potential - 5 hr assay (AID 651755; calls by dose curve; note: % is set by controls: 0 for no effect and ±100 for the full control effect; nearly all actives have a fitted effect of over 40% in size). The note with it: JC-1-type ratio dye; at 92.2 µM (top of the series).
Assay [6] deals with Tumor necrosis factor (Homo sapiens) (UniProt P01375). The assay is described as follows: qHTS assay to identify small molecules that stimulate Tumor Necrosis Factor-alpha (TNF-alpha) secretion (AID 651757; active = well fitted curve in the direction sought with a large enough effect in the signal ratio; the % refers to the signal ratio; note: 0% is about no effect). To be noted: Human cells, HTRF 665/615 ratio; at 92.2 µM (top of the series). In a few lines:
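Using 3000 THP-1 cells per well, compounds and controls were applied for 17 hrs at 37 C. Detection followed with two labeled anti-TNF-alpha antibodies (cryptate donor, XL665 acceptor) for 3 hr at room temperature, measured by TR-FRET.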

A short description of assay [7]: qHTS assay for environmental chemicals that activate the Aryl hydrocarbon Receptor (AhR) signaling pathway (AID 651777). Note: % of control where 0% means no effect; nearly all actives have a fitted effect of over 15% in size. To be noted: 1A2-DRE human hepatoma cells, luciferase, 24 h; stronger effect = higher value.
Description: as §1, §2, §3, §4, §5
The Aryl hydrocarbon Receptor (AhR) plays a critical role in the development of cancer or neoplasm and its formation is most likely due to genetic mutations and the influence of environment. Exposure to environmental pollutants such as polycyclic aromatic hydrocarbons (PAH), their halogenated derivatives and heterocyclic amines causes the induction of phase I and II enzymes. The transcriptional activation of CYP1A2 is directly regulated by AhR.
A cell based assay (1A2-DRE cells, developed by Puracyp, Inc., CA) was used to assess the activation of AhR. Human hepatoma cells were stably transfected with the dioxin response element (DRE) and CYP1A2 promoter fused to a luciferase gene. Increased luciferase activity can be used to identify the compounds that cause the induction of CYP1A2 and AhR activation.
1,200 cells in 5 uL/well were dispensed into white wall/solid bottom 1536-well plates using a Multidrop Combi (Thermo Scientific) dispenser. […] 5 ul One-Glo (Promega) was then added to each well and following 30 min incubation at room temperature, luciferase activity was quantified on a ViewLux CCD-based plate reader.

Assay [8] addresses Peroxisome proliferator-activated receptor alpha (Homo sapiens) (UniProt Q07869). Nature of the assay: qHTS assay for small molecule agonists of the peroxisome proliferator-activated receptor alpha (PPARalpha) signaling pathway (AID 651778). Note: % of control where 0% means no effect. The note with it: PathHunter PPARalpha complementation, chemiluminescence, 6 h; stronger effect = higher value. In a few lines:
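Enzyme-fragment complementation assay in which ligand-bound PPARalpha translocates and forms an active enzyme that generates chemiluminescence. Cells were plated overnight, exposed to compound for 6 hr at 37 C, and then given detection reagent for 60 min at room temperature.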

Assay [9] in a line: qHTS assay for small molecule agonists of the antioxidant response element (ARE) signaling pathway measured by Nrf2-dependant transcriptional activity (AID 720636; active = well fitted curve in the direction sought with a large enough effect in the repeat runs; an effect the other way counts as inactive or inconclusive; note: potency is the fitted concentration of half-maximal effect;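 for activation: HepG2 cells with an ARE-driven luciferase reporter; % of control where 0% means no effect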). The note with it: ARE-luc HepG2, Nrf2 luciferase reporter, 16 h; series mostly up to 92.4 µM. In a few lines:
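In HepG2 cells engineered with an Nrf2-responsive luciferase gene, ARE induction was quantified as luminescence after 16 hr compound treatment at 37 C.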

A short description of assay [10]: qHTS assay for small molecule antagonists of the retinoid-related orphan receptor gamma (ROR-gamma) signaling pathway - cell viability counter screen (AID 720652; active = well fitted curve in the direction sought with a large enough effect in the repeat runs; an effect the other way counts as inactive or inconclusive;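 note: CHO reporter cells with doxycycline-induced ROR-gamma expression; compound exposure lasted 16 hr before ATP read; % is set by controls: 0 for no effect and ±100 for the full control effect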). To be noted: RORgamma reporter cell line viability counter screen; at 92.2 µM (top of the series).

As for `O=[N+]([O-])C(Cl)(Cl)Cl`, the activation in [1] is inactive: 0.341% and inactive: 5.1%; in assay [2], inactive: -3.71% and inactive: -2%; in assay [3] it was inactive: 0.117% and inactive: -1.34%; in assay [7], inactive: 0.507% and inactive: 0.262%. In addition, the ratio change, negative = depolarisation in assay [4] is inactive: -3.65%. The ratio change, negative = disruption in [5] was inactive: 10.6%. Besides, in assay [6], the activation (TNF-alpha secretion) was inactive: 0.0365%. Also, the max response in assay [8] is inactive: -0.475% and inactive: 0.25%. In [9], the Potency result is “inactive”. The activity change, negative = cytotoxicity in assay [10] was inactive: -7.78%.
Regarding `CN(CCCl)CCCl`, the activation is inactive: 0.111% in assay [3] and inactive: 1% in [7]. The activation (TNF-alpha secretion) in assay [6] was inactive: 3.04%. In [8], the max response is inactive: -0.534%. In addition, the Potency in assay [9] is active: 37.6 µM.
